In PubChem BioAssay AID798 (PCMD, 2007) one finds inhibition data, which are given here for 103 molecules.

Chains of the proteins cited; added tags and fusions are not shown.
UniProt P03951, whole entry, looked up: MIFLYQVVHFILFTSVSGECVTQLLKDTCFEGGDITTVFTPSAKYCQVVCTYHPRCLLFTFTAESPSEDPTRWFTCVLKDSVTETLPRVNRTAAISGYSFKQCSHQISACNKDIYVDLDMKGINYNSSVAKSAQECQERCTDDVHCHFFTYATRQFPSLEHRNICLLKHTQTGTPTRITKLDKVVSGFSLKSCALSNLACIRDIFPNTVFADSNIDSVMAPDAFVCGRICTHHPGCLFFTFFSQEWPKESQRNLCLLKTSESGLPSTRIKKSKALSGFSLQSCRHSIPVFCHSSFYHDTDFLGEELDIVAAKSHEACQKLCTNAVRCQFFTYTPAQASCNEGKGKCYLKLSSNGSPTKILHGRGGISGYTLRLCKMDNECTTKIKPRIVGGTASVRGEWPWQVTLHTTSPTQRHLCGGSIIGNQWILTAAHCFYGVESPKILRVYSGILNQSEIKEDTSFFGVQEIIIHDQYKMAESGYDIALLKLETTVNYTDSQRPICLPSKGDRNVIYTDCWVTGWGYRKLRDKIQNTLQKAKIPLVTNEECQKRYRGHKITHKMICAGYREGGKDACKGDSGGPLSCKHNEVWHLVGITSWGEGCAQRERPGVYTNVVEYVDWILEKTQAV

Structures are written as SMILES. Values joined by “and” are separate entries in the source; they are usually repeats but may differ in a detail not shown here. Identical values can stand only once. The entries are a selection whose mix differs from that of the whole data set. Active and inactive are the calls of the source.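 How the source made its calls: active means inhibition of at least 40%; inactive means inhibition below 40%.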

The target of this experiment is Coagulation factor XI (Homo sapiens) (UniProt P03951). In words: human FXIa protease inhibitors, primary screen, biochemical, 1536-well (AID 798).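 Further: fluorescence of freed AMC excited at 355 nm; 0% = enzyme without compound and 100% = no enzyme blank.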 The note with it: purified FXIa, Boc-Glu-Ala-Arg-AMC fluorogenic substrate; at 5 µM; hits give high values.
In general, inhibition refers to the change of the read-out against control, counted positive when it falls. Turning to `CC(=O)Nc1ccc([As](=O)(O)O)cc1`, the inhibition is inactive: 4.28%.
On to `O=C(O)c1ccccc1[As](=O)(O)O`, for which the inhibition is inactive: 9.98%.
In the case of `O=P(Nc1nc2ccc(Cl)cc2s1)(c1ccccc1)c1ccccc1` it was inactive: 0.05%.
For the molecule `Cc1cc(SC(NC(=O)c2ccc(F)cc2)C(Cl)(Cl)Cl)ncn1` (stereo not drawn), the inhibition is inactive: -2.86%.
In the case of `CCOP(=O)(Nc1ccccc1)OCC` it was inactive: 1.78% and inactive: 3.19%.
Under `Cc1ccc(NP(=O)(Oc2ccccc2F)Oc2ccccc2F)nc1` stands active: 46%; under `CCN(N=Nc1nonc1N)c1nonc1N`, inactive: -1.51%; under `Nc1cccc2ccc([As](=O)(O)O)cc12`, inactive: 3.44%.
Under `NC(=O)c1cc([N+](=O)[O-])cc([N+](=O)[O-])c1N` stands inactive: -6.93%; under `Cc1ccc(N/C(=N/P(=O)(N2CCOCC2)N2CCOCC2)N2CCOCC2)cc1`, inactive: -1.1%.
With `COc1ccccc1OP(=O)(Nc1ccc(C)cn1)Oc1ccccc1OC`, the inhibition is inactive: -1.61%.
As for `Cc1ccc(OP(=O)(Nc2nccs2)Oc2ccc(C)cc2)cc1`, the inhibition was inactive: -0.16%.
In the case of `CN1CCCC(OC(=O)C(c2ccccc2)c2ccccc2)C1` (stereo not drawn) it was inactive: 18%; in that of `Clc1ccc(Cl)c(NC2=NCC(CBr)S2)c1` (stereo not drawn), inactive: -1.66%; in that of `Nc1cc(N)c2nonc2c1[N+](=O)[O-]`, inactive: 2.46%.
In the case of `CC(C)CC(=O)NC(Sc1ccc(Cl)cc1)C(Cl)(Cl)Cl` (stereo not drawn) it was inactive: 2.71%; in that of `Oc1ccccc1CNc1ccccn1`, inactive: 4.36%; in that of `O=C(NC(Sc1ccncn1)C(Cl)(Cl)Cl)c1ccccc1` (stereo not drawn), inactive: -3.84%.
In the case of `Cc1c2non([O-])c-2c(C)[n+](=O)[n+]1[O-]` it was inactive: 12.1%.
On to `COc1ccc(C2=NCC(CBr)S2)cc1` (stereo not drawn), for which the inhibition is inactive: -2.26%.
Take `CC(=O)N1C2C3N(C(C)=O)C1C1N(C(C)=O)C(C(N1C(C)=O)N3C(C)=O)N2C(C)=O`: the inhibition was inactive: 7.38%.
As to `O=[N+]([O-])c1cccc2n[nH]nc12`, the inhibition was inactive: 5.36%.
Under `Cc1ccc(NP(=O)(Oc2ccccc2)Oc2ccccc2)nc1` stands inactive: -7%; under `O=[N+]([O-])c1cc([N+](=O)[O-])c(CCNc2ccccc2)c([N+](=O)[O-])c1`, inactive: -1.67%; under `CCc1nc2c(n1)c1c(non1O)c1c2no[n+]1[O-]`, inactive: 20.2%.
Under `Nc1ccc([As](=O)(O)c2ccc(N)cc2)cc1` stands inactive: 9.99%.
Consider `C[N+]1=C2C=CC=CC=C2SC12C([N+](=O)[O-])=CC([N+](=O)[O-])=C[C-]2[N+](=O)[O-]` (stereo not drawn), for which the inhibition is inactive: 3.09%.
Regarding `CCN(/C(=N/P(=O)(N1CCOCC1)N1CCOCC1)N1CCOCC1)c1ccc(OC)cc1`, the inhibition was inactive: -1.6%.
In the case of `CC(C)=N/N=C(\N)N[N+](=O)[O-]` it was inactive: -2.23%; in that of `CN(C)C(=O)OCCc1n(C)cc[n+]1C`, inactive: -5.75%; in that of `CC1CCN(C(=O)Oc2c(Cl)cc(Cl)c3cccnc23)CC1`, inactive: 1.02%.
In the case of `O=C(Nc1cc([As](=O)(O)O)ccc1O)c1ccccc1` it was inactive: -8.75%.
In the case of `CC(C)(C)C(=O)NC(Sc1ccncn1)C(Cl)(Cl)Cl` (stereo not drawn) it was inactive: -4.26%.
With `O=[N+]([O-])c1ncn(CCn2ncnc2[N+](=O)[O-])n1`, the inhibition was inactive: -0.63%.
For `O=[N+]([O-])c1cccc(NC2=NCC(CBr)S2)c1` (stereo not drawn), the inhibition is inactive: 1.86%.
Under `O=C(O)CNc1ccc([As](=O)(O)O)cc1` stands inactive: -2.83%; under `O=P(Nc1ccccn1)(c1ccc(Br)cc1)c1ccc(Br)cc1`, inactive: -1.2%; under `O=P(Nc1nc2ccccc2s1)(c1ccccc1)c1ccccc1`, inactive: -3.04%.
Take `C[C@H]1OP(=O)(Oc2ccccc2)[C@H](O)[C@H](O)[C@H]1N=[N+]=[N-]` (stereo partly drawn): the inhibition was inactive: -0.05%.
In the case of `CC(=O)NC(SC(=S)N(C)C)C(Cl)(Cl)Cl` (stereo not drawn) it was inactive: 5.03%; in that of `O=[N+]([O-])c1ncn(CCn2cnc([N+](=O)[O-])n2)n1`, inactive: -2.15%; in that of `O=[As](O)(c1ccccc1)c1ccc(O)cc1`, inactive: -8.28%.
In the case of `C(Cc1nn[nH]n1)Cc1nn[nH]n1` it was inactive: 3.72%; in that of `Nc1ccc([As](=O)(O)c2ccc([N+](=O)[O-])cc2)cc1`, inactive: 2.05%; in that of `O=C(OC1CN2CCC1CC2)c1cccc(Cl)c1` (stereo not drawn), inactive: -1.23%.
In the case of `O=P(Nc1nccs1)(c1ccccc1)c1ccccc1` it was inactive: -2.04%; in that of `CC(C)C(=O)NC(Sc1ccccc1)C(Cl)(Cl)Cl` (stereo not drawn), inactive: 4.16%.
Consider `c1nnnn1CCn1cnnn1`, for which the inhibition was inactive: -1.19%.
In the case of `O=P1(Nc2nc3ccc(Cl)cc3s2)COc2ccccc2O1` (stereo not drawn) it was inactive: 1.66%; in that of `CCOc1ccc(C2=NCC(CBr)S2)cc1` (stereo not drawn), inactive: -4.52%.
`CC(C)(C)C(=O)NC(Sc1ccccc1)C(Cl)(Cl)Cl` (stereo not drawn): the inhibition is inactive: -6.31%.
For the molecule `C[C@H]1OP(=O)(Oc2ccccc2)C[C@@H]2O[C@@H]21` (stereo partly drawn), the inhibition is inactive: 0.63%.
Under `C[C@@H]1C=CCP(=O)(Oc2ccccc2)O1` (stereo partly drawn) stands inactive: -0.77%; under `CC(=O)Nc1ccc([As](=O)(O)O)c(O)c1`, inactive: -1.89%.
`CC(=O)Nc1ccc(Oc2c([N+](=O)[O-])cc([N+](=O)[O-])cc2[N+](=O)[O-])cc1`: the inhibition was inactive: 2.69%.
As to `O=C(NC1CCS(=O)(=O)C1)NP(=S)(Oc1ccccc1)Oc1ccccc1` (stereo not drawn), the inhibition is inactive: -3.3%.
`CCNC(=S)/N=C(\N)N[N+](=O)[O-]`: the inhibition was inactive: -3.01%.
For `c1ccc(-c2nn[nH]n2)c(-c2nn[nH]n2)c1`, the inhibition is inactive: -3.92%.
In the case of `Cc1ccc(NP(=O)(Oc2cccc(C)c2)Oc2cccc(C)c2)nc1` it was inactive: 3.73%.
In the case of `CCOC(=O)NC(Sc1ccccc1)C(Cl)(Cl)Cl` (stereo not drawn) it was inactive: -0.82%.
In the case of `COC(=O)c1cc2c(s1)N=C(c1ccccc1)N(C)P2(=O)N1CCOCC1` (stereo not drawn) it was inactive: 15.7%.
As for `CC(=O)NC(SC(=S)N(CC(C)C)CC(C)C)C(Cl)(Cl)Cl` (stereo not drawn), the inhibition was inactive: 9.04%.
In the case of `Cc1ccc(OP(=O)(Nc2ccccn2)Oc2ccc(C)cc2)cc1` it was inactive: 4.9%.
Consider `CCC(=O)N1C2C3N(C(=O)CC)C1C1N(C(=O)CC)C(C(N1C(=O)CC)N3C(=O)CC)N2C(=O)CC`, for which the inhibition was inactive: 16.9%.
Under `Cc1ccccc1OP(=O)(Nc1ccccn1)Oc1ccccc1C` stands inactive: 2.44%; under `O=c1c2cc([N+](=O)[O-])ccc2[nH]c2c([N+](=O)[O-])cc([N+](=O)[O-])cc12`, inactive: 1.6%; under `CN(C)C(=O)Oc1noc2ccccc12`, inactive: 4.13%.
Under `CS(=O)(=O)c1cc([N+](=O)[O-])c2no[n+]([O-])c2c1` stands inactive: -1.27%; under `CCOP1(=S)c2c(C)nn(CCC#N)c2N=C(c2ccccc2F)N1C` (stereo not drawn), inactive: 7.38%; under `O=P(Nc1nccs1)(Oc1ccccc1)Oc1ccccc1`, inactive: -1.52%.
Under `O=P(Nc1nccs1)(c1ccccc1)c1nc2ccccc2s1` (stereo not drawn) stands inactive: 4.67%; under `O=C(O)COc1ccc([As](=O)(O)O)cc1[N+](=O)[O-]`, inactive: 3.93%; under `Nc1ccccc1[As](=O)(O)c1ccccc1`, inactive: -4.87%.
For `NC(=O)Nc1ccc([As](=O)(O)O)cc1`, the inhibition is inactive: 1.6%.
In the case of `O=[N+]([O-])c1ccc2c(c1)nnn2O`, the inhibition was inactive: 0.64%.
Under `CN(C(=O)Cc1ccccc1)[C@@H]1CC[C@]2(CCCO2)C[C@H]1N1CCCC1` stands inactive: 3.37%; under `CCOP1(=S)c2c(C)nn(CCC#N)c2N=C(c2ccc(F)cc2)N1C` (stereo not drawn), inactive: -0.95%; under `O=[As](O)(O)c1cccnc1`, inactive: -9.52%.
In the case of `COc1cc(C(=O)NCC2(N3CCOCC3)CCCCC2)cc(Cl)c1OC(C)C` it was inactive: 1.92%.
In the case of `O=C(OC1CN2CCC1CC2)c1ccc(Cl)cc1` (stereo not drawn) it was inactive: 3.74%.
Consider `Cc1cccc(OCC(=O)OC2CN3CCC2CC3)c1` (stereo not drawn), for which the inhibition is inactive: 0.25%.
Consider `O=[As](O)(c1cccc(O)c1)c1cccc(O)c1`, for which the inhibition was inactive: -2.69%.
Under `CCCOP(=S)(Nc1nc(N)cc(=O)[nH]1)OCCC` stands inactive: 0.23%.
As for `Cc1ccc(NCCc2c([N+](=O)[O-])cc([N+](=O)[O-])cc2[N+](=O)[O-])cc1`, the inhibition is inactive: 3.85%.
In the case of `Nc1cccc2c([As](=O)(O)O)cccc12` it was inactive: 4.27%.
Turning to `COc1cc(C2NCCC3(OCCO3)C2(C)C)cc(OC)c1OC` (stereo not drawn), the inhibition was inactive: 3.26%.
Under `CCOP(=O)(Nc1cccc2ccccc12)OCC` stands inactive: -6.82%; under `CCOP(=O)(Nc1ccc(C)cn1)OCC`, inactive: -0.38%.
Under `O=P1(Nc2ccccn2)COc2ccccc2OC1` stands inactive: -7.4%; under `Clc1n[nH]nc1-c1nn[nH][15n]1`, inactive: 7.68%.
In the case of `CC(C)(C)C(=O)NC(Sc1ncccn1)C(Cl)(Cl)Cl` (stereo not drawn) it was inactive: 3.27%; in that of `O=[As](O)(c1ccccc1Br)c1ccccc1Br`, inactive: -3.77%.
Turning to `CC(C)/C=N\N=C(\N)N[N+](=O)[O-]`, the inhibition was inactive: 4.63%.
As for `Cc1nn(-c2ccccc2)c2c1P(=O)(N1CCOCC1)N(C)C(c1ccccc1)=N2` (stereo not drawn), the inhibition is inactive: -1.23%.
In the case of `CC1CCC(C(C)C)C(OP(=O)(Nc2ccccn2)c2ccccc2)C1` (stereo not drawn) it was inactive: -1.51%.
In the case of `O=C(/C=C/c1ccccc1)OC1CN2CCC1CC2` (stereo not drawn) it was inactive: -3.89%; in that of `CN(C)C1(CNC(=O)c2ccc(S(C)(=O)=O)cc2)CCCCC1`, inactive: -2.18%.
For the molecule `O=P1(Nc2ncccn2)COc2ccccc2OC1`, the inhibition is inactive: -4.76%.
For `Cc1ccc(OCC(=O)OC2CN3CCC2CC3)cc1` (stereo not drawn), the inhibition was inactive: -1.94%.
In the case of `O=[As](O)(c1cccs1)c1cccs1` it was inactive: -0.27%; in that of `O=P1(Nc2ccc(Br)cn2)COc2ccccc2OC1`, inactive: 1.17%.
Turning to `Nc1cccc([As](=O)(O)c2ccccc2)c1`, the inhibition is inactive: -4.37%.
With `CCOC(=O)Nc1ccc([As](=O)(O)O)c(O)c1`, the inhibition is inactive: 6.7%.
